The source of these data is patent US8394821B2, “Activated blood coagulation factor inhibitor” (Daiichi Sankyo Company, Limited, priority 2009, dated 2013).

A value given as a limit tells only on which side of the number the result lay.

The nature of series [1]: Moisture absorption and desorption characteristics (microbalance, water vapor adsorption apparatus). Type of series: physicochemical. The conditions noted are these: 25° C., 40% to 60% RH. The procedure:
Various samples prepared in Example 1 were separately placed in quartz holders and measured for their moisture absorption and desorption behavior under the following conditions using a microbalance.
Moisture absorption and desorption behavior measurement conditions (sample volume: approximately 20 mg, measurement range: 10-90% RH, measurement temperature: 25° C., variable: within 0.03%, varying length of time: 10 min., apparatus: VTI atmospheric pressure-type automatic water vapor adsorption apparatus SGA-100)

Series [2] in a line: Evaluation of solubility (37° C., 30 min, HPLC). Type of series: physicochemical. The method, then:
A supersaturated amount of each sample was placed in a 12-mL test tube, and 3 mL of a test solution (water, Japanese Pharmacopoeia disintegration test solution No. 1 (JP1), and Japanese Pharmacopoeia disintegration test solution No. 2 (JP2)) was added thereto. The test tube was incubated in a constant-temperature water bath at 37° C. The test tube was shaken using a vortex mixer for 30 seconds every 5 minutes. 30 minutes later, the supernatant was filtered through a membrane filter (pore size: 0.45 μm), appropriately diluted with eluent, and then analyzed by HPLC under the following conditions. The concentration was calculated from a calibration curve prepared before measurement.
Measurement conditions of HPLC (column: Waters Symmetry C18 4.6 mm×150 mm, eluent: 0.05 M phosphate buffer (pH 5.0): acetonitrile=70:30, flow rate: 1 mL/min., detection: UV 220 nm, column temperature: 40° C.)

With `CN1CCc2nc(C(=O)N[C@@H]3C[C@@H](C(=O)N(C)C)CC[C@@H]3NC(=O)C(=O)Nc3ccc(Cl)cn3)sc2C1.O.O=C(O)C(O)C(O)C(=O)O` [compound II, N^1-(5-chloropyridin-2-yl)-N^2-((1S,2R,4S)-4-[(dimethylamino)carbonyl]-2-{[(5-methyl-4,5,6,7-tetrahydrothiazolo[5,4-c]pyridin-2-yl)carbonyl]amino}cyclohexyl)ethanediamide(+)-tartrate monohydrate], in series [1], the “weight change at 40% to 60% relative humidity” value is listed as ≤ 1%. Moreover, in series [2] (Japanese Pharmacopoeia disintegration test solution No. 1, 37° C., 30 minutes), the “JP1 (Solubility (μg/mL))” value was >2000 µg/mL. Moreover, in series [2] (Japanese Pharmacopoeia disintegration test solution No. 2, 37° C., 30 minutes), the “JP2 (Solubility (μg/mL))” value was determined as 138 µg/mL. Moreover, the “solubility in water (in words)” value in series [2] (crystals, compared with compound A) is listed as “highly soluble in water compared with compound A”. Further, in series [2] (water, 37° C., 30 minutes), the “Water (Solubility (μg/mL))” value was >2000 µg/mL.
